Data: PubChem BioAssay (Tox21)
Several values for one entry are separate records, joined by “and”; a condition that tells them apart may be missing. Identical values can stand only once. This is a selection; strong and weak results do not stand in their true shares. Records with an inconclusive call do not appear. Activity calls are given as the source filed them. Calls come from the whole dose curve.

experiment: p53 small molecule agonists, cell-based qHTS assay with rat liver microsomes: qHTS cell viability counter screen (AID 1963580); conditions: p53RE-bla HCT-116 + rat microsomes, ATP viability, 16 h; at 30.3 µM (top of the series); note: nearly all actives have a fitted effect of over 45% in size
Text: National Center for Advancing Translational Sciences [NCATS]
Division of Preclinical Innovation [DPI]
U.S. Environmental Protection Agency [EPA]
National Institutes of Environmental Health Sciences [NIEHS]
National Toxicology Program [NTP]
U.S. Food and Drug Administration [FDA]
p53, a tumor suppressor protein, is activated following cellular insult, including DNA damage and other cellular stresses. The activation of p53 regulates cell fate by inducing DNA repair, cell cycle arrest, apoptosis, or cellular senescence. The activation of p53, therefore, is a good indicator of DNA damage and other cellular stresses. The CellSensor p53RE-bla HCT-116 cell line contains a stably integrated beta-lactamase reporter gene under control of the p53 response elements. The activation of the reporter gene under culture conditions can be detected by fluorescence intensity. This cell line was used to screen the Tox21 10K compound library in the condition of presence of rat liver microsomes and to identify agonists that activate the p53 signaling pathway after in vitro metabolic activation (Ooka et al., Archive of Toxicology 96:1975-1987, 2022). The cytotoxicity of the Tox21 compound library against the p53 RE-bla HCT-116 cell line was tested in parallel by measuring the intra cellular ATP content in the same wells.
Tox21 Assay Protocol Summary:
The p53RE-bla cells were dispensed at 4,000cells/3ul/well in 1536-well black-clear bottom plates. After the assay plates were incubated at 37 C, 5% CO2 incubator for 5 hours, 23 nL of compounds dissolved in DMSO, positive controls or DMSO only was transferred to the assay plate. Following compound addition, 3 uL of rat liver microsomes (Molecular Toxicology, Boone, NC) at final concentration of 0.5 mg/mL and 1uL of B-Nicotinamide adenine dinucleotide 2'-phosphate (NADPH) at final concentration of 0.5 mg/mL were transferred to the assay plate. The plates were incubated at 37 C for 16 hours. 1 uL of LiveBLAzer detection mixture was added to each well and the plates were incubated at room temperature in the dark for 2 h. Fluorescence intensity at 460 and 530 nm emission and 405 nm excitation were measured by an Envision plate reader. For cell viability readout that measures cytotoxicity, 4 ul/well of CellTiter-Glo reagent was added into the assay plates using a Flying Reagent Dispenser. After 30 min incubation at room temperature, the luminescence intensity in the plates was measured using a ViewLux plate reader.
% is set by controls: 0 for no effect and ±100 for the full control effect.

SMILES | activity change, negative = cytotoxicity
OCCSCCO | inactive: 1.25%
CCOP(=O)(CC)Oc1ccc([N+](=O)[O-])cc1 (centres undefined) | inactive: 0.484%
C/C1=C2N=C(/C=C3N=C(/C(C)=C4\[N-][C@@](C)([C@@H]5N=C1[C@](C)(CCC(=O)NC[C@@H](C)OP(=O)([O-])O[C@H]1[C@@H](O)[C@@H](n6cnc7cc(C)c(C)cc76)O[C@@H]1CO)[C@H]5CC(N)=O)[C@@](C)(CC(N)=O)[C@@H]4CCC(N)=O)[C@@](C)(CC(N)=O)[C@@H]\3CCC(N)=O)C(C)(C)[C@@H]/2CCC(N)=O.[C-]#N.[Co+3] | inactive: -11.4%

same assay, conditions: p53RE-bla HCT-116 + rat microsomes, ATP viability, 16 h; at 66 µM (top of the series)

SMILES | activity change, negative = cytotoxicity
N=C(N)N[N+](=O)[O-] | inactive: 6.97%
Cc1c([N+](=O)[O-])cccc1[N+](=O)[O-] | inactive: 0.0296% and inactive: -3.47%
OCCSCCO | inactive: -7.02%
CP(=O)(O)OCCC[Si](O)(O)O | inactive: 6.69%
CCN(CC)CCCl | inactive: -1.04%
CC(C)N(CCO)C(C)C | inactive: -9.04%
CN(C)CCCl | inactive: -2.24%
O=[N+]([O-])[O-].[NH4+] | inactive: 0.728% and inactive: 0.396%
Cc1ccc([N+](=O)[O-])cc1[N+](=O)[O-] | inactive: -4.7% and inactive: 4.18%
[NH4+].[O-][Cl+3]([O-])([O-])[O-] | inactive: 12.3% and inactive: 0.608%
N#CBr | inactive: 2.32%
COc1ccc([N+](=O)[O-])cc1[N+](=O)[O-] | inactive: 3.79%
O=[N+]([O-])OCC(CO[N+](=O)[O-])(CO[N+](=O)[O-])CO[N+](=O)[O-] | inactive: 18.3%
Nc1cc([N+](=O)[O-])cc([N+](=O)[O-])c1O | inactive: -10.5%
COP(C)(=O)OC | inactive: -23.2% and inactive: 6.21%
CCOP(=O)(CC)OCC | inactive: 2.16%
